US6780891B2, “Tramadol analogs and uses thereof” (Sepracor Inc., priority 2001, dated 2004)
Several values for one entry are separate records, joined by “and”; a condition that tells them apart may be missing. Equal values may be shown once.

Amino acid sequences for entries named in this document (tags omitted). A change or cut given only in a name is not applied to a line headed by its entry. Residues count along the entry.
UniProt A0A286XTF2, 1-366: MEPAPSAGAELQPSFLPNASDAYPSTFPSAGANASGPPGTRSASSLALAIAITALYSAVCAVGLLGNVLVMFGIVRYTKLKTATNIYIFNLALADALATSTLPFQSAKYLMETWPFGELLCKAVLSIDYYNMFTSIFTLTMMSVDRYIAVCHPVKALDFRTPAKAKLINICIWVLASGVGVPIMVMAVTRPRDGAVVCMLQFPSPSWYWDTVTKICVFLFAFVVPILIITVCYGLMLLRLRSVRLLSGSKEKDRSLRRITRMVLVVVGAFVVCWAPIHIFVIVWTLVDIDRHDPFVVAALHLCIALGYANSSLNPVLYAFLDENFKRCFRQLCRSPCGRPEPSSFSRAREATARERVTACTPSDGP

Target: T1, δ receptor (Cavia porcellus, UniProt A0A286XTF2)
T1 construct: Following incubation, the membranes were rapidly filtered under vacuum through glass fiber filters; from tissue
Experiment: δ opioid receptor binding, [3H]DPDPE
Conditions: read-out: IC50, opioid binding, δ; guinea-pig cerebral cortex, [3H]DPDPE 1.5 nM, 120 minutes/22° C.

## DPDPE
  IC50: 3.2 nM and 4.5 nM
